In publication PMC7346449 one finds percent of astrocytes with proximity ligation products (% of astrocytes) data, which are given here for one substance.

This assay addresses excitatory amino acid transporter 2 (mouse, endogenous) (mouse (endogenous in primary astrocytes and brain)) (UniProt P43006). Kind of assay: proximity ligation; cultured primary mouse astrocytes treated with human RBC-EVs at 37 °C for 3 h, fixed; antibody against the C-terminus (intracellular domain) of EAAT2, or against EAAT1, and Syn211 against human α-syn; untreated and dynasore-treated astrocytes as controls.

Regarding “α-synuclein (human, endogenous; carried in erythrocyte-derived extracellular vesicles, and in human brain) (from UniProt P37840 1-140) (natural protein)”, the percent of astrocytes with proximity ligation products (% of astrocytes) was 40.
